Ab-95 light chain CDR variants: yeast mating affinities

The measurements come from Engelhart et al. 2022 (doi:10.1038/s41597-022-01779-4) through the FLAb antibody collection.

Target: peptide PDVDLGDISGINAS, taken from heptad repeat 2 (HR2) of SARS-CoV-2 spike.

The variants keep the heavy chain, the linker and the frameworks of Ab-95 (scFv order VH, three GGGGS repeats, VL).
VH: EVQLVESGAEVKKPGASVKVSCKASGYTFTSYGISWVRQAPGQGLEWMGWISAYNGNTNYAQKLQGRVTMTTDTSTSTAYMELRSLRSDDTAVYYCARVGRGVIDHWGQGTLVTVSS
VL: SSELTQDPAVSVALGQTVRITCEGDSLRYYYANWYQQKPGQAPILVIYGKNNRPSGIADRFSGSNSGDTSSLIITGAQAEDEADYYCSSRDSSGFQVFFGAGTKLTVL

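Phage display of a naive human antibody library on the peptide gave the parent. The library (AAYL52) carries one to three amino acid substitutions per variant, with no insertions or deletions. Affinity was read by AlphaSeq, a pooled yeast mating assay with surface-displayed partners. Binding brings cells together so that they mate, and sequencing counts the barcode pairs among the diploids. The ratio of observed to expected reads was calibrated, replicate by replicate, on BCL2-family standards whose Kd was known from biolayer interferometry. Each pool was mated in three replicate cultures.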

Each variant is given by its three light chain CDRs, as the data file delimits them; those of the parent are EGDSLRYYYAN, GKNNRPS, SSRDSSGFQVF.
All variants listed here change Q96 of the VL, counted from its first residue.
Affinities are written as log10 Kd with Kd in nM; a lower number is a better binder.
A mean of the replicates is given; it leaves out those without a signal.
"no signal" means that the variant was in the library but no mating with the target was seen in any replicate; the authors take this as a sign of poor binding, and no number exists.
Three control strains display no target. For library AAYL52, 28% of the pairings with them gave a signal, with a median of 3.91 and one signal in twenty below 2.90, so weak values seen in few replicates may be background. Also given: how often the same scFv was detected with the empty control strains.

EGDSLRYYYAN, GKNNYPS, SSRDSSGFWMF: 4.21 (2 of 3 replicates; controls 5 of 9).
EGDSLRYHYHN, GKNNRPS, SSRDSSGFAVF: 3.04 (1 of 3 replicates; controls 2 of 9).
EGDSLRYYYAN, GKNNRPS, SSRDSSGFYWN: 2.05 (3 of 3 replicates; controls 0 of 9).
MGDSLRYYYAN, GKNNRPS, SSRGSSGFPVF: 2.59 (3 of 3 replicates; controls 1 of 9).
FGDSLRYYYAN, GKNNRPS, SSRDSSGFDVM: 2.97 (3 of 3 replicates; controls 5 of 9).
EGDSLQYYYAN, GKNNRPS, SSRMSSGFWVF: 3.06 (3 of 3 replicates; controls 2 of 9).
EGDSLRYYYAN, GKNNRPS, SSRRSSGFRFF: 2.41 (3 of 3 replicates; controls 6 of 9).
EGDSLRYYYAN, GKNNRPS, SARDDSGFNVF: 1.69 (3 of 3 replicates; controls 0 of 9).
EGDSIRYYYAN, GKNNFPS, SSRDSSGFSVF: 4.03 (1 of 3 replicates; controls 1 of 9).
EGDSLRYYYAN, GKNNRPS, SNRISSGFWVF: 4.15 (2 of 3 replicates; controls 3 of 9).
EGDSLRYYYAN, GPNNRPS, SSRDSSGFTVH: 2.30 (3 of 3 replicates; controls 3 of 9).
EGDSLRYYYAN, GKNNRPS, SSRDSFGPNVF: 3.19 (3 of 3 replicates; controls 5 of 9).
EGDSLRYYYSN, GKNNRPS, SSRISSGFNVF: 4.08 (2 of 3 replicates; controls 4 of 9).
EGDSLRYYYAN, GKNNRPK, FSRDSSGFIVF: no signal (0 of 3 replicates; controls 1 of 9).
EGDSLRYYYAN, GKSNRPS, SSRDSSGFGVR: 3.39 (3 of 3 replicates; controls 3 of 9).
EGDSLRYYYAN, GRNNRPS, SMRDSSGFDVF: 3.59 (3 of 3 replicates; controls 3 of 9).
EGDSLRYYYAN, GKNNRIT, SSRDSSGFWVF: no signal (0 of 3 replicates; controls 1 of 9).
EGDSLRYYYAA, GKNNRPS, SSRDSSGTKVF: no signal (0 of 3 replicates; controls 0 of 9).
EGDSLRAYYAN, GKNNSPS, SSRDSSGFPVF: 3.26 (2 of 3 replicates; controls 5 of 9).
EGKSLRYYYAN, GKNNRPS, SSMDSSGFFVF: 2.28 (3 of 3 replicates; controls 3 of 9).
EGDSLRYYYAG, GKNNRPS, SSRDSSGFKVF: no signal (0 of 3 replicates; controls 3 of 9).
EGDSLRYYYAN, GKNNRPS, SWRDSSGFLVF: 2.88 (3 of 3 replicates; controls 5 of 9).
EGDSLRYWYAN, GKNNRPS, SSRDSSGNRVF: 2.74 (3 of 3 replicates; controls 4 of 9).
EGDSLRYYYAN, GKNNRPS, SSRDSSGFCVT: 2.11 (2 of 3 replicates; controls 0 of 9).
EGDSLRYEYAN, GKGNRPS, SSRDSSGFYVF: 1.60 (3 of 3 replicates; controls 3 of 9).
RGDSLRYYYAN, DKNNRPS, SSRDSSGFVVF: 1.65 (3 of 3 replicates; controls 1 of 9).
EGDSLRYYYAL, GKNNRPS, SSRDSSHFDVF: 5.06 (2 of 3 replicates; controls 4 of 9).
EGDSLRYYYAN, RKNNRPS, SSRDSSGTRVF: 4.31 (1 of 3 replicates; controls 0 of 9).
NGDSLRYYYAN, GKNNRPS, SSRDSSGFFVF: 3.10 (3 of 3 replicates; controls 3 of 9).
EGDKLRPYYAN, GKNNRPS, SSRDSSGFYVF: 3.47 (2 of 3 replicates; controls 3 of 9).
EHDSLRYYYAN, GKNNRPS, SSRDSSGFLVF: 2.92 (3 of 3 replicates; controls 1 of 9).
EGDSLRYHYAH, GKNNRPS, SSRDSSGFVVF: no signal (0 of 3 replicates; controls 4 of 9).
EGDSLRYYYAN, GINNRPS, SSRDSSGFINF: 3.50 (2 of 3 replicates; controls 4 of 9).
YGDSLRYYYAN, MKNNRPS, SSRDSSGFHVF: 4.10 (1 of 3 replicates; controls 1 of 9).
EGDSLRYYYAN, GKNNTPS, SDRDSSGFNVF: 3.51 (2 of 3 replicates; controls 3 of 9).
PGSSLRYYYAN, GKNNRPS, SSRDSSGFLVF: 3.47 (1 of 3 replicates; controls 1 of 9).
EGDSLRYYYAN, GKNNRPS, ESRDSSGFKVF: 2.12 (3 of 3 replicates; controls 1 of 9).
EFDSPRYYYAN, GKNNRPS, SSRDSSGFPVF: no signal (0 of 3 replicates; controls 1 of 9).
EGDSLRYYIAN, GKNNRPS, SSRDSSIFFVF: 3.13 (2 of 3 replicates; controls 3 of 9).
SGDSLRYYYAN, GKNNRPS, SSRDISGFTVF: 3.02 (3 of 3 replicates; controls 4 of 9).
EGDALRYYYAN, GKNNRPS, SSRDSSGFKVF: 3.18 (3 of 3 replicates; controls 2 of 9).
EGDSLRYYYAN, GKNRRPS, SSRDSSGFWPF: 3.29 (3 of 3 replicates; controls 5 of 9).
EGDSLRYYYAN, GKNNRPS, SSEDSSGFLWF: 3.81 (3 of 3 replicates; controls 1 of 9).
EGDSLRYYYAN, GKNNRIS, SFRDSSGFPVF: 2.67 (3 of 3 replicates; controls 3 of 9).
EGSSLRYYYAN, GSNNRPS, SSRDSSGFHVF: 2.70 (3 of 3 replicates; controls 4 of 9).
EGDSLRYYYAN, GKNNRPS, SSRDSSGSFVF: 3.43 (3 of 3 replicates; controls 1 of 9).
EGDSLRYYYAN, GKHNRPS, SSRDSSLFAVF: 5.25 (2 of 3 replicates; controls 1 of 9).
EGDSWRYYYAN, GKNNRPS, SSRDSSGALVF: no signal (0 of 3 replicates; controls 1 of 9).
EGDSLRYYYAN, GHNNRPS, SSRDSSGFTVF: 3.40 (2 of 3 replicates; controls 1 of 9).
EGDSLRYYYAN, GPNNRPS, SSRDSSGFYVF: 2.37 (3 of 3 replicates; controls 4 of 9).

Excerpt, the first 5 entries:

| CDR-L1 | CDR-L2 | CDR-L3 | mean, log10 nM | replicates with signal | signal with controls |
|---|---|---|---|---|---|
| EGDSLRYYYAN | GKNNYPS | SSRDSSGFWMF | 4.21 | 2 of 3 | 5 of 9 |
| EGDSLRYHYHN | GKNNRPS | SSRDSSGFAVF | 3.04 | 1 of 3 | 2 of 9 |
| EGDSLRYYYAN | GKNNRPS | SSRDSSGFYWN | 2.05 | 3 of 3 | 0 of 9 |
| MGDSLRYYYAN | GKNNRPS | SSRGSSGFPVF | 2.59 | 3 of 3 | 1 of 9 |
| FGDSLRYYYAN | GKNNRPS | SSRDSSGFDVM | 2.97 | 3 of 3 | 5 of 9 |

Parent in this assay: reference entry 2.31, copy in this library 2.25.